Reference: BindingDB's records for PubMed 8226867 (Synaptic Pharmaceutical, 1993)

By UniProt entry, the sequences of proteins in these tests, tags left out.
UniProt P34969, whole entry: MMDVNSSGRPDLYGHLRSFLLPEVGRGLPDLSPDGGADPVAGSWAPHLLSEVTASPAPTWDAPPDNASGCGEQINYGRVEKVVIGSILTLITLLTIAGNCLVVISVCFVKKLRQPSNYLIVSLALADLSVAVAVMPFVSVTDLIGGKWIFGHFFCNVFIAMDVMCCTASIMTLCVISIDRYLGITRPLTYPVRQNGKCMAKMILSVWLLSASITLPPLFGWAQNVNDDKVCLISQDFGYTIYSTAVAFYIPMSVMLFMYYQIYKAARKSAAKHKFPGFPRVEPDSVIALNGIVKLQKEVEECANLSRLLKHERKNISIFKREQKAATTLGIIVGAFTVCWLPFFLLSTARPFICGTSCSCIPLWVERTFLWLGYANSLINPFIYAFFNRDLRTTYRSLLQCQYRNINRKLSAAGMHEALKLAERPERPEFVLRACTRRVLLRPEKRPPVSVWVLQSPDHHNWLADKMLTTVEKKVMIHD

Molecular target: 5-hydroxytryptamine receptor 7 (Homo sapiens, UniProt P34969)

CCCN(CCC)C1CCc2cccc(O)c2C1 (stereo unspecified)
Ki: 466 nM
